From paper PMC12299470, “Selection of an Optimal Metabolic Model for Accurately Predicting the Hepatic Clearance of Albumin-Binding-Sensitive Drugs” (Pharmaceuticals, 2025)

How the values were obtained:
[1] = parameters: method as in EMBL-EBI database; conditions: acidic or neutral; ref EMBL-EBI database; cited from earlier work
[2] = tested on: isolated perfused rat liver; conditions: male, Sprague-Dawley

Row | Structure (SMILES) | Class [1] | CLint, MWSM [2]
1 | CN1C(=O)CN=C(c2ccccc2)c2cc(Cl)ccc21 [Diazepam] | N | 
2 | O=C(O)Cc1ccccc1Nc1c(Cl)cccc1Cl [Diclofenac] |  | 13.50
